# From US10071158B2, “Combination of the application of antibodies for immunostimulation together with glucocorticoids” (Lindis Biotech GmbH, priority 2005, dated 2018)
# What was measured:
# PBMC [1] = test: Release of TNF-α by PBMC after stimulation with Herceptin without/with HER2/neu-positive tumour cells (HCT8); type: cell-based, human; conditions: Herceptin 1 mg/ml with HCT8 and dexamethasone (FIG. 18)
# Experimental: (§1) FIGS. 17 to 18 show graphic representations of the results of the release of various cytokines in healthy test subjects by PBMC (at a concentration of 10^6 cells/ml) after stimulation with the monoclonal monospecific antibody Herceptin (AK) (at a concentration of 1 mg/ml) without and in the presence of HER2/neu-positive tumour cells (HCT8) (at a concentration of 5×10^4 cells/ml). On the y-axes the concentration of the respective cytokine in pg/ml has been plotted. On the x-axes the respective stimulation assays of the PBMC have been plotted. […] The values of unstimulated PBMC by way of control have likewise been plotted (“PBMC”).
# (§2) After the stimulation the determination of the concentrations of the cytokines IL-6, IL-10, TNF-α and IFN-γ was undertaken in the supernatant on plates with 24 recesses in each instance by means of an ELISA. In each instance duplicate measurements were carried out. The ELISAs were undertaken by means of standardised kits produced by R&D Systems, in accordance with the manufacturer's instructions.
# PBMC [2] = test: Release of IL-6 by PBMC after stimulation with Herceptin without/with HER2/neu-positive tumour cells (HCT8); type: cell-based, human
# Experimental: as §1, §2
substance,measurement,setting,value
"Herceptin: monoclonal monospecific antibody Herceptin, tested with HER2/neu-positive tumour cells",specific action (release of TNF-α at the site of antigen binding),PBMC [1],very strong specific action
same,effects on the release of various cytokines compared with the anti-EpCAM x anti-CD3 antibody,PBMC [2]; FIGS. 17 to 18 versus FIGS. 11 to 16,substantially the same effects
same,specific action (release of IL-6 at the site of antigen binding),PBMC [2]; Herceptin 1 mg/ml with HCT8 and dexamethasone (FIG. 17),strong specific action
